Measurements from ChEMBL document CHEMBL4476868, “Benzimidazole derivatives and uses thereof” (2017).

Chains of the proteins cited; added tags and fusions are not shown.
UniProt Q9NR19, whole entry: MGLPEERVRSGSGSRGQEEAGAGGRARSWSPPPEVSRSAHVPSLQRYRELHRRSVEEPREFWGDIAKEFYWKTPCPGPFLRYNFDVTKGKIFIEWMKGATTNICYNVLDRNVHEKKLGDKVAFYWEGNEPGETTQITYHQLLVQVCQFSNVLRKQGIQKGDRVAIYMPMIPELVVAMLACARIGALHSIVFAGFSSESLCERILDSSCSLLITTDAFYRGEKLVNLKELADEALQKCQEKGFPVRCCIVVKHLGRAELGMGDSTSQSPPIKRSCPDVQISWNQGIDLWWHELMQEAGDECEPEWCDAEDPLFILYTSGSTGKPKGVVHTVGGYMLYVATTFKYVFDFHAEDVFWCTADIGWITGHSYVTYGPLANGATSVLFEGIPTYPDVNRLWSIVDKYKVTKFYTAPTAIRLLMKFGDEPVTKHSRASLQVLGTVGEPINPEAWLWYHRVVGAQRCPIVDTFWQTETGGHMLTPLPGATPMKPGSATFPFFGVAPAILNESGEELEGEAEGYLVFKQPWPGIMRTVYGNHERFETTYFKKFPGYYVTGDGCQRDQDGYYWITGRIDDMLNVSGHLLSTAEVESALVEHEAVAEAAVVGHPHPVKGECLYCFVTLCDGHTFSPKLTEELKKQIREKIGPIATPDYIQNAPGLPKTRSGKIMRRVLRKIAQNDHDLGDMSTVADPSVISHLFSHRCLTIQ

target: T1, Acetyl-coenzyme A synthetase, cytoplasmic (Homo sapiens, UniProt Q9NR19); assay: Inhibition of N-terminal 6x-histidine tagged human ACSS2 expressed in insect cells assessed as reduction in pyrophosphate production using CoA and ATP incubated for 30 mins by pyrophosphatase coupled enzymatic assay

SMILES | IC50 [nM]
CCn1c(C(O)(c2ccccc2)c2ccccc2)nc2ccc(S(N)(=O)=O)cc21 | < 50
CCn1c(C(O)(c2ccccc2)c2ccccc2)nc2c(OC)cccc21 | > 1000
CCn1c(C2(O)c3ccccc3-c3ccccc32)nc2ccc(C(=O)NCC(C)O)cc21 (stereo not drawn) | > 1000
Cc1ccc2nc(C(c3ccccc3F)c3ccccc3F)n(C)c2c1 | > 1000
CNC(=O)c1ccc2c(c1)nc(C(O)(c1ccccc1)c1ccccc1)n2C | > 1000
CCn1c(C(O)(c2ccccc2)c2ccccc2)nc2ccc(S(=O)(=O)CCO)cc21 | 50 to 249
CCn1c(C(O)(c2ccccc2)c2ccccc2)nc2c(F)cc(C#N)cc21 | > 1000
Cc1ccc2nc(C(O)(CO)c3ccccc3)n(C)c2c1 (stereo not drawn) | > 1000
CCn1c(C(O)(c2ccccc2)c2ccccc2)nc2ccc(C(=O)NC3CCOCC3)cc21 | 50 to 249
CCn1c(C(O)(c2ccccc2)c2ccccc2)nc2ccc(OCCCO)cc21 | 50 to 249
CCn1c(C2(O)c3ccccc3Oc3ccccc32)nc2ccc(C(=O)NC[C@@H](C)O)cc21 | > 1000
CCn1c(C(O)(c2ccccc2)c2ccccc2)nc2ccc(C(=O)NC3CCNCC3)cc21 | 50 to 249
CCn1ccc(NC(=O)c2ccc3c(c2)nc(C(O)(c2ccccc2)c2ccccc2)n3C)n1 | > 1000
CCn1c(C(O)(c2ccccc2)c2ccccc2)nc2ccc(OCCO)cc21 | 50 to 249
CCn1c(C(O)(c2ccccc2)c2ccccc2)nc2c(Cl)cc(C(=O)O)cc21 | > 1000
CCn1c(C(O)(c2ccccc2)c2ccccc2)nc2cc(OCCCO)ncc21 | > 1000
CCn1c(C(O)(c2ccccc2)c2ccccc2)nc2c(OC)cc(C)cc21 | > 1000
Cc1ccc2nc(C(CO)(c3ccccc3)c3ccccc3)n(C)c2c1 | > 1000
CCn1ccc(NC(=O)c2ccc3nc(C(O)(c4ccccc4)c4ccccc4)n(C4COC4)c3c2)n1 | > 1000
CCn1c(C(O)(c2ccccc2)c2ccccc2)nc2ccc(C(F)(F)C(=O)NC)cc21 | < 50
CCn1c(C(O)(c2ccccc2)c2ccccc2)nc2cc(OCCO)ccc21 | > 1000
CCn1c(C(O)(c2ccccc2)c2ccccc2)nc2c(OCCO)nccc21 | > 1000
CCn1c(C(O)(c2ccccc2)c2ccccc2)nc2c(Cl)cc(C)cc21 | > 1000
CCn1c(C(O)(c2ccccc2)c2ccccc2)nc2ccc(C#N)cc21 | 50 to 249
CCn1c(C(O)(c2ccccc2)c2ccccc2)nc2ccc(C(=O)Nc3cc(OC)c(OC)c(OC)c3)cc21 | < 50
CCn1c(C(O)(c2ccccc2)c2ccccc2)nc2c(OC)nccc21 | > 1000
CCn1c(C(O)(c2ccccc2)c2ccccc2)nc2cc(O)ccc21 | > 1000
CCn1c(C(O)(c2ccccc2)c2ccccc2)nc2ccc(S(=O)(=O)NC)cc21 | < 50
CCn1c(C(O)(c2ccccc2)c2ccccc2)nc2cnc(OC)cc21 | > 1000

Further lines, results first:

IC50 [nM] | SMILES
50 to 249 | CCn1c(C(O)(c2ccccc2)c2ccccc2)nc2ccc(OCC(=O)O)cc21
50 to 249 | CCn1c(C(O)(c2ccccc2)c2ccccc2)nc2ccc(C(=O)OC)cc21
< 50 | CCn1c(C(O)(c2ccccc2)c2ccccc2)nc2ccc(C(=O)NC[C@H](O)CC(C)(F)F)cc21
50 to 249 | CCn1c(C(O)(c2ccccc2)c2ccccc2)nc2ccc(C(=O)NCC(C)C)cc21
50 to 249 | CCn1c(C(O)(c2ccccc2)c2ccccc2)nc2ccc(C(=O)NCCCO)cc21
< 50 | CCOC(=O)C(F)(F)CNC(=O)c1ccc2nc(C(O)(c3ccccc3)c3ccccc3)n(CC)c2c1
> 1000 | C[C@@H](O)CNC(=O)c1ccc2nc(C(O)(c3ccccc3)c3ccccc3)n(C3COC3)c2c1
50 to 249 | CCn1c(C(O)(c2ccccc2)c2ccccc2)nc2ccc(C(=O)NCCN)cc21
50 to 249 | CCn1c(C(O)(c2ccccc2)c2ccccc2)nc2ccc(C(=O)NC3CCC(O)CC3)cc21 (stereo not drawn)
50 to 249 | CCn1c(C(O)(c2ccccc2)c2ccccc2)nc2ccc(NC(C)=O)cc21
> 1000 | CCn1c(C(O)(c2ccccc2)c2ccccc2)nc2cc(C(=O)OCCO)ccc21
< 50 | CCn1c(C(O)(c2ccccc2)c2ccccc2)nc2ccc(C(=O)NC[C@H](O)CCC(F)F)cc21
< 50 | CCn1c(C(O)(c2ccccc2)c2ccccc2)nc2ccc(CC(N)=O)cc21
50 to 249 | CCNC(=O)c1ccc2nc(C(O)(c3ccccc3)c3ccccc3)n(CC)c2c1
< 50 | CCn1c(C(O)(c2ccccc2)c2ccccc2)nc2ccc(C(=O)NCC(F)(F)CO)cc21
50 to 249 | CCn1c(C(O)(c2ccccc2)c2ccccc2)nc2ccc(OCCNC(C)=O)cc21
< 50 | C=CC[C@@H](O)CNC(=O)c1ccc2nc(C(O)(c3ccccc3)c3ccccc3)n(CC)c2c1
< 50 | CCn1c(C(O)(c2ccccc2)c2ccccc2)nc2ccc(C(=O)NC[C@@H](O)CF)cc21
50 to 249 | CCn1c(C(O)(c2ccccc2)c2ccccc2)nc2ccc(C(=O)NCCCOC)cc21
< 50 | CCn1c(C(O)(c2ccccc2)c2ccccc2)nc2ccc(C(=O)NCC(F)(F)C#N)cc21
50 to 249 | CCn1c(C(O)(c2ccccc2)c2ccccc2)nc2ccc(C(=O)NC[C@H](C)O)cc21
50 to 249 | CCn1c(C(O)(c2ccccc2)c2ccccc2)nc2ccc(OCC(=O)OC)cc21
50 to 249 | CCn1c(C(O)(c2ccccc2)c2ccccc2)nc2ccc(C(=O)NC)cc21
> 1000 | CC(C)n1c(C(O)(c2ccccc2)c2ccccc2)nc2ccc(C(=O)NC[C@@H](C)O)cc21
50 to 249 | C[C@@H](O)CNC(=O)c1ccc2nc(C(O)(c3ccccc3)c3ccccc3)n(C)c2c1
50 to 249 | CNC(=O)c1ccc2nc(C(O)(c3ccccc3)c3ccccc3)n(C)c2c1
> 1000 | CCn1c(C(O)(c2ccccc2)c2ccccc2)nc2ccc(C(NC[C@@H](C)O)C(F)(F)F)cc21 (mixture of isomers)

target: T1, Acetyl-coenzyme A synthetase, cytoplasmic; assay: Inhibition of ACSS2 in human HCT116 cells pre-incubated for 2 hrs before [1,2-14C] sodium acetate addition and measured after 3 hrs by [14C]-Acetate uptake assay; type: cell-based

SMILES | IC50 [nM]
Cn1c(C(O)(c2ccccc2)c2ccccc2)nc2ccc(S(N)(=O)=O)cc21 | < 50
CCn1ccc(NC(=O)c2ccc3nc(C(O)(c4ccc(F)cc4)c4ccc(F)cc4)n(CC)c3c2)n1 | < 50
CCn1c(C(O)(c2ccccc2)c2ccccc2)nc2ccc(NC(=O)COC(C)=O)cc21 | < 50
CCn1c(C(O)(c2ccccc2)c2ccccc2)nc2ccc(C(O)C(F)(F)COC(C)=O)cc21 (stereo not drawn) | < 50
CCn1ccc(NC(=O)c2ccc3nc(C(O)(c4ccccc4F)c4ccccc4F)n(CCO)c3c2)n1 | < 50
C[C@@H](O)CNC(=O)c1ccc2nc(C(O)(c3ccccc3F)c3ccccc3F)n(C)c2c1 | < 50
CCN1C[C@H](NC(=O)c2ccc3nc(C(O)(c4ccccc4F)c4ccccc4F)n(CC)c3c2)CCC1=O | 50 to 249
CCN1C[C@@H](NC(=O)c2ccc3nc(C(O)(c4ccccc4F)c4ccccc4F)n(CC)c3c2)CCC1=O | < 50
CCN1CC(NC(=O)c2ccc3nc(C(O)(c4ccccc4)c4ccccc4)n(C)c3c2)CN(CC)C1=O | 50 to 249
Cn1c(C(O)(c2ccc(F)cc2)c2ccc(F)cc2)nc2ccc(C(=O)NCCF)cc21 | < 50
CCn1cnc(C(=O)Nc2ccc3nc(C(O)(c4ccccc4)c4ccccc4)n(CC)c3c2)n1 | < 50
CCN1C[C@@H](NC(=O)c2ccc3nc(C(O)(c4ccccc4F)c4ccccc4F)n(C)c3c2)CCC1=O | < 50
CCn1ccc(NC(=O)c2ccc3nc(C(O)(c4ccccc4)c4ccccc4)n(C(C)C)c3c2)n1 | < 50
CCn1c(C(O)(c2ccccc2)c2ccccc2)nc2ccc(NC(=O)c3ccccc3)cc21 | 50 to 249
CN1C[C@@H](NC(=O)c2ccc3nc(C(O)(c4ccccc4F)c4ccccc4F)n(C)c3c2)CCC1=O | 50 to 249
CCn1c(C(O)(c2ccccc2F)c2ccccc2F)nc2ccc(C(=O)N[C@H]3CCC(=O)N(C)C3)cc21 | 50 to 249
CCn1c(C(O)(c2ccc(F)cc2)c2ccc(F)cc2)nc2ccc(C(=O)NCCF)cc21 | < 50
CCn1c(C(O)(c2ccccc2)c2ccccc2)nc2ccnc(OC)c21 | 50 to 249
CCN1C[C@H](NC(=O)c2ccc3nc(C(O)(c4ccccc4F)c4ccccc4F)n(C)c3c2)CCC1=O | 50 to 249
CCn1c(C2(O)c3ccccc3CCc3ccccc32)nc2ccc(C(=O)NC[C@@H](C)O)cc21 | < 50
Cn1c(C(O)(c2ccccc2)c2ncccc2F)nc2ccc(S(N)(=O)=O)cc21 (stereo not drawn) | 50 to 249
Cn1c(C(O)(c2ccccc2)c2ccccc2)nc2ccc(S(N)(=O)=O)c(F)c21 | 50 to 249

Other lines, results leading:

IC50 [nM] | SMILES
50 to 249 | CCn1c(C(O)(c2ccccc2)c2ccccc2)nc2ccc(C(=O)NC3COC3)cc21
< 50 | CCn1c(C(O)(c2ccccc2)c2ccccc2)nc2ccc(NC(=O)CNC(C)=O)cc21
50 to 249 | CCN1CC(NC(=O)c2ccc3nc(C(O)(c4ccccc4)c4ccccc4)n(CC)c3c2)CC1=O (stereo not drawn)
< 50 | CCn1c(C(O)(c2ccccc2)c2ccccc2)nc2ccc(C(=O)NCC(C)C#N)cc21 (stereo not drawn)
50 to 249 | CCn1c(C(O)(c2ccccc2)c2ccccc2)nc2ccc(C(=O)NCC(C)(C)O)cc21
< 50 | CCCC(O)CNC(=O)c1ccc2nc(C(O)(c3ccccc3)c3ccccc3)n(CC)c2c1 (stereo not drawn)
< 50 | CCn1c(C(O)(c2ccccc2)c2ccccc2)nc2ccc(C(=O)NCCC#N)cc21
< 50 | CCn1cnc(NC(=O)c2ccc3nc(C(O)(c4ccccc4)c4ccccc4)n(CC)c3c2)c1
< 50 | CCn1c(C(O)(c2ccccc2)c2ccccc2)nc2ccc(C(=O)NCC#N)cc21
< 50 | CCn1c(C(O)(c2ccccc2)c2ccccc2)nc2ccc(C(=O)NCC(F)(F)F)cc21
50 to 249 | CCn1c(C(O)(c2ccccc2)c2ccccc2)nc2ccc(C(=O)NCC(C)(C)C#N)cc21
< 50 | CCn1c(C(O)(c2ccccc2)c2ccc(O)cc2)nc2ccc(C(=O)NC[C@@H](C)O)cc21 (stereo partly drawn)
< 50 | CCn1c(C(O)(c2ccccc2)c2cccc(O)c2)nc2ccc(C(=O)NC[C@@H](C)O)cc21 (stereo partly drawn)
< 50 | CCn1cnc(NC(=O)c2ccc3nc(C(O)(c4ccccc4)c4ccccc4)n(CC)c3c2)n1
< 50 | C[C@@H](O)CNC(=O)c1ccc2nc(C(O)(c3ccccc3)c3ccccc3)n(CCO)c2c1
